From PMC11784200, “Insights into antibiotic resistance promoted by quinolone exposure” (Antimicrobial Agents and Chemotherapy, 2024)
Values after ≈ are worked out from the molar mass of the structure shown.

System: E. coli MG1655
Test: microbe, parasite or virus in culture
Type: cell-based
Conditions: Escherichia coli, MG1655, read-out: Solid-agar MIC
Experimental: Minimum inhibitory concentration (MIC) values were determined in triplicate as described ([55]). […] All compounds were purchased from Sigma.

## COc1cc(Cc2cnc(N)nc2N)cc(OC)c1OC [TMP, trimethoprim]
  MIC: 0.4 µg/mL (≈ 1.38 µM)
